What all share (assay type): cell membranes, Membrane
In test [1] the target is Delta-type opioid receptor (Rattus norvegicus, UniProt P33533). Put plainly: Displacement of [3H]Ile5,6-deltorphin II from opioid receptor delta 1 of rat brain membranes. In general terms: In a radioligand displacement assay an active substance lowers the binding of a labelled ligand.
For test [2], the target named is T1, Mu-type opioid receptor (Rattus norvegicus, UniProt P33535). Put plainly: Displacement of [3H]endomorphin-2 from Opioid receptor mu 1 of rat brain membranes.
Test [3] deals with T1, Mu-type opioid receptor. Put plainly: Displacement of [3H]DAMGO from Opioid receptor mu 1 of rat brain membranes.

Sequences of proteins named here, by UniProt entry; tags and fusion partners are left off.
UniProt P33533, whole entry: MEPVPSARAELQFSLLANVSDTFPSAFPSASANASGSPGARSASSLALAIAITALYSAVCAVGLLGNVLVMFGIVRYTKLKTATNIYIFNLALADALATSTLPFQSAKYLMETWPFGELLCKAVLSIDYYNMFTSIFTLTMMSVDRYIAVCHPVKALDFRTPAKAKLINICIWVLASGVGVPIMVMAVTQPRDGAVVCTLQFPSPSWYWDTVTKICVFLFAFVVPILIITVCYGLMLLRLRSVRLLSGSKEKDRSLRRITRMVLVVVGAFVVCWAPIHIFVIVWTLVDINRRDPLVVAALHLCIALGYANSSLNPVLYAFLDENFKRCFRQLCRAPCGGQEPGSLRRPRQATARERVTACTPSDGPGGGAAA
UniProt P33535, whole entry: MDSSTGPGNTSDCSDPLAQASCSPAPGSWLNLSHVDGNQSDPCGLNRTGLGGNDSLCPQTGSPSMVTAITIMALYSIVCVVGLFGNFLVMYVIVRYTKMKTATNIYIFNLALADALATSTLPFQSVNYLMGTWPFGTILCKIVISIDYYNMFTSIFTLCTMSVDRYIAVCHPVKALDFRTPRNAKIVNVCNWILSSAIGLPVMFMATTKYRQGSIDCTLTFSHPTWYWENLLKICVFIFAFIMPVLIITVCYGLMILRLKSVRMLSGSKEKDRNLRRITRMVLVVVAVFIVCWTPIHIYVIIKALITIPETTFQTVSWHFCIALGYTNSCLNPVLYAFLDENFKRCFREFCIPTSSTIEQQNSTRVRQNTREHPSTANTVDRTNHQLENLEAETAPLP

From ChEMBL document CHEMBL1138837, “Structure-activity study on the Phe side chain arrangement of endomorphins using conformationally constrained analogues” (J Med Chem, 2004) come the findings set out here.

Broadly, the Ki is the equilibrium dissociation constant of an inhibitor or competing ligand from its target. A higher Ki goes with a looser hold on the target.

The molecule `C[C@@H](c1ccccc1)[C@@H](NC(=O)[C@H](Cc1c[nH]c2ccccc12)NC(=O)[C@@H]1CCCN1C(=O)[C@@H](N)Cc1ccc(O)cc1)C(N)=O` yielded a Ki in test [1] of 745 nM. As for `C[C@H](c1ccccc1)[C@@H](NC(=O)[C@@H]1CCCN1C(=O)[C@@H](N)Cc1ccc(O)cc1)C(=O)N[C@@H](Cc1ccccc1)C(N)=O`, the results for the Ki on Mu-type opioid receptor [2] and on Mu-type opioid receptor [3] were 6980 nM and 7090 nM, respectively.

The molecule `C[C@@H](c1ccccc1)[C@H](NC(=O)[C@H](Cc1c[nH]c2ccccc12)NC(=O)[C@@H]1CCCN1C(=O)[C@@H](N)Cc1ccc(O)cc1)C(N)=O` showed a Ki in test [1] of 567 nM. Still for that read-out and setting: in the case of `C[C@H](c1ccccc1)[C@H](NC(=O)[C@H](Cc1c[nH]c2ccccc12)NC(=O)[C@@H]1CCCN1C(=O)[C@@H](N)Cc1ccc(O)cc1)C(N)=O` it was 4630 nM; in that of `C[C@H](c1ccccc1)[C@@H](NC(=O)[C@H](Cc1c[nH]c2ccccc12)NC(=O)[C@@H]1CCCN1C(=O)[C@@H](N)Cc1ccc(O)cc1)C(N)=O`, 1460 nM.

Regarding `C[C@@H](c1ccccc1)[C@@H](NC(=O)[C@@H]1CCCN1C(=O)[C@@H](N)Cc1ccc(O)cc1)C(=O)N[C@@H](Cc1ccccc1)C(N)=O`, the Ki on Mu-type opioid receptor [2] was above 10000 nM; on Mu-type opioid receptor [3], 4910 nM.

For `C[C@@H](c1ccccc1)[C@H](NC(=O)[C@@H]1CCCN1C(=O)[C@@H](N)Cc1ccc(O)cc1)C(=O)N[C@@H](Cc1ccccc1)C(N)=O`, the Ki was found to be 73.1 nM on Mu-type opioid receptor [2] and 45.3 nM on Mu-type opioid receptor [3]. For `C[C@H](c1ccccc1)[C@H](NC(=O)[C@@H]1CCCN1C(=O)[C@@H](N)Cc1ccc(O)cc1)C(=O)N[C@@H](Cc1ccccc1)C(N)=O`, the Ki on Mu-type opioid receptor [2] was 35 nM; at Mu-type opioid receptor [3], 106 nM.
